Experimental data taken from patent US20060094649A1, “Hla-a1,-a2,-a3,-a24,-b7, and-b44 tumor associated antigen peptides and compositions” (priority 2002, published 2006).
Where two headings read alike, the source gives them in different places.

Assays:
[1] = molecular target: HLA-B*4001 (Homo sapiens, UniProt P01889, A65T/A93T/A95T/D138N/D98Y/E176V/E69K/N87E/Q56L/Q94N/R180L/S121R/S35A/S48T/T167S/V36M/W171L/Y33H/Y91S); test: Class I peptide-binding assay, HLA-B*4001 (B44 supertype); conditions: read-out: B*4001
[2] = test system: HLA-B44 supertype molecules; test: HLA-B44 supertype cross-binding; parameters: species or system human; conditions: number of the six B44 supertype alleles bound
[3] = molecular target: HLA-B*4002 (Homo sapiens, UniProt P01889, A65T/A93T/A95T/D138N/D201E/D98Y/E176V/E204Q/E69K/K202T/N87E/Q56L/Q94N/R180L/S48T/Y33H/Y91S); test: Class I peptide-binding assay, HLA-B*4002 (B44 supertype); conditions: read-out: B*4002
[4] = HER2/neu-derived B44 peptides, Table 27, binding to purified HLA-B*4001
[5] = HER2/neu-derived B44 peptides, Table 27, binding to purified HLA-B*4002
[6] = p53-derived B44 peptides, Table 28, dash cells
[7] = MAGE2-derived B44 peptides, Table 29, dash cells

| Degeneracy [2] | IC50 ([1]; CEA-derived B44 peptides) [µM] | IC50 ([3]; CEA-derived B44 peptides) [µM] | SMILES | IC50 [1, 4] [µM] | further results |
| --- | --- | --- | --- | --- | --- |
| 2 | > 10 | > 10 | CC(C)[C@H](NC(=O)[C@H](CCCNC(=N)N)NC(=O)[C@H](Cc1ccccc1)NC(=O)[C@H](CCC(N)=O)NC(=O)CNC(=O)[C@@H](NC(=O)[C@H](C)NC(=O)[C@H](CCC(=O)O)NC(=O)[C@H](CCC(=O)O)NC(=O)[C@@H](N)CC(N)=O)[C@@H](C)O)C(=O)O |  |  |
| 0 | > 10 | > 10 | CC(C)C[C@H](NC(=O)[C@H](Cc1ccc(O)cc1)NC(=O)[C@@H](NC(=O)[C@H](C)NC(=O)[C@H](CC(=O)O)NC(=O)[C@H](CCC(N)=O)NC(=O)[C@@H](NC(=O)[C@H](CCC(=O)O)NC(=O)[C@@H]1CCCN1)[C@@H](C)O)[C@@H](C)O)C(=O)N[C@@H](Cc1c[nH]c2ccccc12)C(=O)N[C@@H](Cc1c[nH]c2ccccc12)C(=O)O |  |  |
| 6 |  |  | CC[C@H](C)[C@H](NC(=O)[C@H](CCC(=O)O)NC(=O)[C@@H](N)CCCCN)C(=O)N[C@@H](CC(C)C)C(=O)N[C@@H](CC(=O)O)C(=O)N[C@@H](CCC(=O)O)C(=O)N[C@@H](C)C(=O)N[C@@H](Cc1ccc(O)cc1)C(=O)N[C@H](C(=O)N[C@@H](CCSC)C(=O)O)C(C)C [compound 436] | 0.0055 | IC50 [3, 5]: 0.004 µM |

The remaining lines, values behind:

| SMILES | Degeneracy [2] | IC50 ([1]; CEA-derived B44 peptides) [µM] | IC50 ([3]; CEA-derived B44 peptides) [µM] | IC50 [1, 4] [µM] | further results |
| --- | --- | --- | --- | --- | --- |
| CC[C@H](C)[C@H](NC(=O)[C@H](CCCCN)NC(=O)[C@H](CCC(=O)O)NC(=O)[C@@H](N)CCC(=O)O)C(=O)N[C@@H](Cc1c[nH]c2ccccc12)C(=O)N[C@@H](CCC(=O)O)C(=O)N[C@@H](CCC(=O)O)C(=O)N[C@@H](CC(C)C)C(=O)N[C@@H](CO)C(=O)N[C@H](C(=O)O)C(C)C | 5 |  |  |  | IC50 ([1]; MAGE3-derived B44 peptides, binding to purified HLA-B*4001): 8.95 µM |
| C[C@H](NC(=O)[C@H](CCC(=O)O)NC(=O)[C@H](CCC(=O)O)NC(=O)[C@@H](N)CC(N)=O)C(=O)N[C@H](C(=O)NCC(=O)N[C@@H](CCC(N)=O)C(=O)N[C@@H](Cc1ccccc1)C(=O)O)[C@@H](C)O | 0 | > 10 | > 10 |  |  |
| CC[C@H](C)[C@H](NC(=O)[C@H](Cc1ccc(O)cc1)NC(=O)[C@H](CC(C)C)NC(=O)[C@H](Cc1ccc(O)cc1)NC(=O)CNC(=O)[C@@H](NC(=O)[C@@H](NC(=O)[C@H](CCC(=O)O)NC(=O)[C@@H](N)CCC(=O)O)[C@@H](C)CC)[C@@H](C)O)C(=O)O [compound 484] | 4 |  |  | 0.906 | IC50 [3, 5]: 0.916 µM |
| CC(C)C[C@H](NC(=O)[C@H](Cc1ccc(O)cc1)NC(=O)[C@H](CCC(=O)O)NC(=O)[C@@H](N)CCC(=O)O)C(=O)N[C@H](C(=O)N1CCC[C@H]1C(=O)N[C@@H](CCC(N)=O)C(=O)N[C@@H](CCC(N)=O)C(=O)NCC(=O)N[C@@H](Cc1ccccc1)C(=O)N[C@@H](Cc1ccccc1)C(=O)O)C(C)C [compound 497] | 4 |  |  | 4.29 |  |
| CC(C)C[C@H](NC(=O)[C@H](Cc1ccc(O)cc1)NC(=O)[C@H](CCC(=O)O)NC(=O)[C@@H](N)C(C)C)C(=O)N[C@@H](CC(=O)O)C(=O)N[C@@H](CC(=O)O)C(=O)N[C@@H](CCCNC(=N)N)C(=O)N[C@@H](CC(N)=O)C(=O)N[C@H](C(=O)O)[C@@H](C)O [compound 628] |  |  |  |  | IC50 [1, 6]: > 10 µM; IC50 [3, 6]: > 10 µM |
| CC(C)[C@H](NC(=O)[C@H](CO)NC(=O)[C@@H]1CCCN1C(=O)[C@H](CC(=O)O)NC(=O)[C@H](CO)NC(=O)[C@H](CCC(N)=O)NC(=O)[C@@H]1CCCN1C(=O)[C@H](CCC(=O)O)NC(=O)[C@@H](N)CCC(=O)O)C(=O)O [compound 637] |  |  |  |  | IC50 [1, 6]: > 10 µM; IC50 [3, 6]: > 10 µM |
| CC[C@H](C)[C@H](N)C(=O)N[C@@H](CCC(=O)O)C(=O)NCC(=O)N[C@@H](CC(=O)O)C(=O)N[C@@H](CS)C(=O)N[C@@H](C)C(=O)N1CCC[C@H]1C(=O)N[C@@H](CCC(=O)O)C(=O)N[C@@H](CCC(=O)O)C(=O)N[C@@H](CCCCN)C(=O)N[C@H](C(=O)O)[C@@H](C)CC [compound 700] |  |  |  |  | IC50 [1, 7]: > 10 µM; IC50 [3, 7]: > 10 µM |
